This assay in a line: Ratio of kinetic parameters Vmax to the of Km; Vmax/Km.

`Nc1nc(F)nc2c([C@@H]3O[C@H](CO)[C@@H](O)[C@H]3O)n[nH]c12`: the Ratio turned out to be 0.017.
Take `Nc1nc(N)c2[nH]nc([C@@H]3O[C@H](CO)[C@@H](O)[C@H]3O)c2n1`: the Ratio amounted to 4.3.
For the molecule `Nc1ncnc2c([C@@H]3O[C@H](CO)[C@@H](O)[C@H]3O)[nH]nc12`, the Ratio amounted to 8.

The values are drawn from ChEMBL document CHEMBL1123068, “2-Fluoroformycin and 2-aminoformycin. Synthesis and biological activity” (J Med Chem, 1985).
